One data set deals with Liver. The data set can be described thus: Unbound intrinsic clearance in Beagle dog liver microsomes at 1 uM. It is filed as ADME, Canis lupus familiaris, Microsome. (In general: Microsomes from liver hold many membrane-bound enzymes, among them those of drug oxidation.)
The next data set concerns Liver microsomes. Briefly: Unbound intrinsic clearance in human liver microsomes at 1 uM. It is filed as ADME, Microsome.
In data set [1] the test system is Canis familiaris. The data set can be described thus: Unbound plasma clearance in Beagle dog at 0.5 mg/kg, iv. In kind it is ADME, organism-based, Canis lupus familiaris. Also on record: dose 0.5 mg/kg, route intravenous. The conditions noted are these: in vivo.
Data set [2] deals with Canis familiaris. The data set can be described thus: Unbound plasma clearance in Beagle dog at 0.3 mg/kg, iv. It is filed as ADME, organism-based, Canis lupus familiaris. Also on record: dose 0.3 mg/kg, route intravenous. The conditions noted are these: in vivo.
Another data set deals with Rattus norvegicus. Briefly: Unbound plasma clearance in Sprague-Dawley rat at 0.5 mg/kg, iv. Also on record: dose 0.5 mg/kg, route intravenous. The conditions noted are these: in vivo. In kind it is ADME, organism-based.

As to `COc1cc2nc(N3CCCN(C(=O)N4CCOCC4)CC3)cc(N)c2c(-c2ncco2)c1OC`, the figures for the CL in the data set on Liver, with Liver microsomes and with Canis familiaris [1] were 23 mL/min/kg, 22 mL/min/kg and 23 mL/min/kg, respectively.
Turning to `COc1cc2nc(N3CCc4c(cccc4NS(C)(=O)=O)C3)nc(N)c2c(-c2ccccn2)c1OC` [TAPRIZOSIN], the CL in the data set with Canis familiaris [2] turned out to be 29 mL/min/kg; in the data set with Rattus norvegicus, 40 mL/min/kg.
